Type in all cases: cell-based
Common to all, as to settings: 24 h

Experiment [1] deals with T1, SOS1 protein (Homo sapiens, UniProt Q07889).
T1 sequence (Q07889 1-1333): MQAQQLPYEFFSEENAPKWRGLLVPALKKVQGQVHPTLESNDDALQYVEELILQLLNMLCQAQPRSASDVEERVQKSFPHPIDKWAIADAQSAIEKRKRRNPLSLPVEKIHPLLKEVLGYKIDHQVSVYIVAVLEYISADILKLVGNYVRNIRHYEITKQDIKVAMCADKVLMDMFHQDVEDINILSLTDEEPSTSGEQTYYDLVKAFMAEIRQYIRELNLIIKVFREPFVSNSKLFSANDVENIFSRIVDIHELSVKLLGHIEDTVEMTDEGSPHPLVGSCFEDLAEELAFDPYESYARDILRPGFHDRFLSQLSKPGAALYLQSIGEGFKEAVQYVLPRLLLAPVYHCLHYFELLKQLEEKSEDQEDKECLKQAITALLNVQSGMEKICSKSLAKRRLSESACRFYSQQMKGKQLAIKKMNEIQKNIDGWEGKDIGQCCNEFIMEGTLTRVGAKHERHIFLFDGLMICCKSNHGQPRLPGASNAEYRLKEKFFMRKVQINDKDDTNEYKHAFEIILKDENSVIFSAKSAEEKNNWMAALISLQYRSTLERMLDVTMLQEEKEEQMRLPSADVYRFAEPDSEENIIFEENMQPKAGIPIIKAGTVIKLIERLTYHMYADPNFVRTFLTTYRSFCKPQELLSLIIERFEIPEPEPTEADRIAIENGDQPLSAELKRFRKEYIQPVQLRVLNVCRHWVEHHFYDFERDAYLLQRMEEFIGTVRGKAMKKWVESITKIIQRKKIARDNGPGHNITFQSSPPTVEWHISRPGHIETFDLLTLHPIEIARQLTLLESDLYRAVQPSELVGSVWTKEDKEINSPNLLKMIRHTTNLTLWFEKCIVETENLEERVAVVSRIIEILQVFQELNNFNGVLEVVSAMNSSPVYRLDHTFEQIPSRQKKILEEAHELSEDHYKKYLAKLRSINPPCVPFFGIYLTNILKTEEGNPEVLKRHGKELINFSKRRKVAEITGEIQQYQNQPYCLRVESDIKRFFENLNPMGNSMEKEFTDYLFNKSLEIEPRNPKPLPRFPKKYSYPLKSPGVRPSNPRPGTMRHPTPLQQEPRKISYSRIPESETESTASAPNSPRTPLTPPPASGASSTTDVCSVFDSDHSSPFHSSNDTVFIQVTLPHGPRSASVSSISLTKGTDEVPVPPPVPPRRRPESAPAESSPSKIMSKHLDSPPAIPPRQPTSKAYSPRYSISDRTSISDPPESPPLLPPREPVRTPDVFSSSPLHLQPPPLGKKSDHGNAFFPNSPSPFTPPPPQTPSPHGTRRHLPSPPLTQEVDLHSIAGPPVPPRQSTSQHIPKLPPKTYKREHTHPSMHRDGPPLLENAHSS
Put plainly: SOS1 degradation assay (Western blot), SW-620 cells. On the set-up: host or cells: SW-620 (human cancer cell lines). The method, then: (§1) The specific procedures were as follows:
(§2) 0.95 mL of cells were seeded into each well of a 24-well cell culture plate to achieve a cell density of 5×10^5 cells/well; the cell plate was incubated in an incubator at 37° C. with 5% CO2 overnight. Then 50 μL of the compound solution after dilution was added to each of the wells with the corresponding cells, so that the final concentration of the compound was in a range of 0.03-3000 nM. […] After dosing, the cell plate was incubated in an incubator at 37° C. with 5% CO2 for 24 h. […] After the plate was left to stand on ice for 30 min, the protein lysate in each well was transferred to a 1.5 mL centrifuge tube and centrifuged at 15000 g for 20 min at 4° C. The cell lysate supernatant after centrifugation was cryopreserved at −80° C. for testing and was used for determining the degradation level of the SOS1 protein by a WB method. The concentration of total protein in the cell lysate supernatant was determined using the BCA Protein Quantification Kit (Tiangen, PA115-02).
(§3) The concentration of total protein in the cell lysate was determined by BCA. […] Then the degradation rate was calculated by comparing the gray correction value with the gray correction value of the control group. […]

The target in experiment [2] is T1, SOS1 protein. Description: SOS1 degradation assay (Western blot), A-427 cells. Further details: host or cells: A-427 (human cancer cell lines). The protocol:
as §1, §2, §3

Experiment [3] addresses T1, SOS1 protein. Description: SOS1 degradation assay (Western blot), NCI-H358 cells. Further details: The degradation of SOS1 by the compounds was investigated on KRAS G12C mutant human non-small cell lung cancer cells NCI-H358; host or cells: NCI-H358 (human cancer cell lines). The method, then:
as §1, §2, §3

For experiment [4], the target named is T1, SOS1 protein. Description: SOS1 degradation assay (Western blot), DLD-1 cells. On the set-up: host or cells: DLD-1 (human cancer cell lines). The protocol:
as §1, §2, §3

Molecules are shown by their SMILES.

What is called DC50 is the concentration giving 50% degradation. For the molecule `COc1cc2nc(C)nc(N[C@H](C)c3cc(N)cc(C(F)(F)F)c3)c2cc1C1CCC(C(=O)N2CCN(CC3CCC4(CC3)CCN(C(=O)c3ccc(OC)c(N5CCC(=O)NC5=O)c3)CC4)CC2)CC1` (stereo partly drawn) [Example 20, 1-(5-(9-((4-((1R,4R)-4-(4-(((R)-1-(3-amino-5-(trifluoromethyl)phenyl)ethyl)amino)-7-methoxy-2-methylquinazolin-6-yl)cyclohexane-1-carbonyl)piperazin-1-yl)methyl)-3-azaspiro[5.5]undecane-3-carbonyl)-2-methoxyphenyl)dihydropyrimidine-2,4(1H,3H)-dione], the “SW620 (G12V) Dmax” value at SOS1 protein [1] is “A (when 80≤Dmax (%)≤100, the level was A)”. Besides, the half-maximal degradation concentration (DC50) is < 50 nM at SOS1 protein [1] (read-out: SW620 (G12V) DC50), < 50 nM on SOS1 protein [2] (read-out: A427 (G12D) DC50), < 50 nM at SOS1 protein [3] (read-out: NCI-H358 (G12C) DC50) and 50 to 100 nM on SOS1 protein [4] (read-out: DLD-1 (G13D) DC50). For the same molecule, the “A427 (G12D) Dmax” value at SOS1 protein [2] was “A (when 80≤Dmax (%)≤100, the level was A)”. Besides, the “NCI-H358 (G12C) Dmax” value on SOS1 protein [3] is on record as “A (when 80≤Dmax (%)≤100, the level was A)”. Further, at SOS1 protein [4], the “DLD-1 (G13D) Dmax” value is given as “A (when 80≤Dmax (%)≤100, the level was A)”.

The values are drawn from patent US20240261417A1, “SOS1 DEGRADING AGENT AND PREPARATION METHOD THEREFOR AND APPLICATION THEREOF” (SHANGHAI LEADINGTAC PHARMACEUTICAL CO. LTD., priority 2021, published 2024).
